Key:
HNE [1] = molecular target: T1, HNE (Homo sapiens, UniProt P08246); test: Bronchoalveolar lavage of the lungs following HNE exposure (lung blood cell level); format: in vivo; conditions: mice
Procedure: A total of 14 animals were used in this study. Anesthetized mice received 0.1 ml of solution delivered by a blunt tip catheter to the opening of the trachea and the animals allowed to aspirate the solution into their lungs. All animals were exposed to the treatment for 2 hours and re-anesthetized. Bronchoalveolar lavage of the lungs was performed as described below. […] Target 2 (a potent HNE inhibitor developed by Zeneca in the early 1990s) when given with the HNE, reduced the average blood level in the lungs by 34% to 0.035 grams. Target C (the Zeneca molecule covalently attached to the N-terminus of the first 25 residues of the human surfactant B peptide) when given with the HNE reduced the average blood level in the lungs by 87% to 0.007 grams.
A set of animals was used to determine the optimal concentration of HNE for the study. […] The amount of HNE was reduced to 40 micrograms to maintain a maximal detrimental but survivable effect. The animals exposed to 40 micrograms of HNE were able to survive long enough to perform the complete study. All animals remaining in the complete study were exposed to 40 micrograms of HNE.
Target 2 (the Zeneca molecule) was given in a 70-fold molar excess relative to HNE. In the kinetic studies, Target 2 has 2 nM affinity. Target C (the Zeneca molecule covalently attached to the first 25 residues of the human surfactant peptide B) loses approximately two orders of magnitude of potency as compared to Target 2 in the kinetic studies and thus Target C has approximately 200 nM affinity for HNE. Accordingly, the Target C was given to the animals in a 100 fold molar excess relative to HNE in these studies.
Bronchio-Alveolar lavage (BAL) is performed by 1) anesthetizing the animals; 2) performing a tracheotomy on the animals and cutting open the chest and spreading the ribs to enable full lung expansion; 3) pressurizing lml of PBS buffer solution into the lungs through the tracheotomy catheter; 4) sucking the solution out of the lungs; 5) centrifuging the recovered solution to separate the red blood cell fraction from the liquid fraction; and 6) weighing the red blood cell fraction.

Amino acid sequences for entries named in this document (tags omitted). Residues count along the entry.
UniProt P08246, 30-267 limits assumed: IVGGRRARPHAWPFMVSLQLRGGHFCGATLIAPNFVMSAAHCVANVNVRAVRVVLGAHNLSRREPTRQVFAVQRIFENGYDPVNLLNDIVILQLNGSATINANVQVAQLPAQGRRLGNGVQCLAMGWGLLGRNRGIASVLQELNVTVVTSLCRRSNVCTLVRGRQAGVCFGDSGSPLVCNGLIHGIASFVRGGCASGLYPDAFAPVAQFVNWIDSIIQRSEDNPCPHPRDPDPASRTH

HNE [2] = molecular target: T1, HNE; test: Kinetic studies of affinity for HNE; format: biochemical; conditions: read-out: affinity for HNE
[3] = given with 40 micrograms HNE via trachea, 2 hours exposure, weight of BAL red blood cell fraction, Target 2 70-fold, Target C 100 fold molar excess relative to HNE

Lung Blood Cell Level Measurements, Mouse Group 4 (HNE [1]; given with 40 micrograms HNE via trachea, 2 hours exposure, weight of BAL red blood cell fraction, Target 2 70-fold molar excess relative to HNE): 0.039 g
Lung Blood Cell Level Measurements, Mouse group 1 (HNE [1]; [3]): 0.03 g
Lung Blood Cell Level Measurements, Mouse group 2 (HNE [1]; [3]): 0.041 g
Lung Blood Cell Level Measurements, Mouse group 3 (HNE [1]; [3]): 0.03 g
Lung Blood Cell Level Measurements, Group mean (HNE [1]; given with 40 micrograms HNE, 2 hours exposure, mean of the mouse groups): 0.035 g
average blood level in the lungs (lung blood cell level by weight) (HNE [1]; given with the HNE, 2 hours exposure): 0.035 grams
reduction of the average blood level in the lungs (HNE [1]; given with the HNE, relative to animals given HNE (0.053 grams)): 34%
Ki (HNE [2]): 2 nM
Structure (SMILES): CC(C)[C@H](NC(=O)CC(=O)O)C(=O)N1CCCC1C(=O)N[C@H](C(=O)C(F)(F)C(=O)NCc1ccccc1)C(C)C (some centres unmarked)
